For this assay, the target named is T1, recombinant human p65 protein, full-length, with DDK (r-p65:DDK) (human, UniProt Q04206 1-551).
T1 construct: mature; also called full-length r-p65:DDK; p65 subunit of NF-kB; not shown: DDK tag
The experiment in a line: kinetic ELISA, plate-bound r-GILZ probed with r-p65:DDK; Scatchard plot and linear regression; plate-bound r-GILZ (full-length protein), not the peptide. The method, then:
High Bind ELISA plates coated with increasing concentrations of GILZ-P (3.9-250 mM) or r-GILZ (0.2-1.8 μM) were probed with 40 μM r-p65 (E) or r-p65AC14 (D) and detected with anti-DDK (E) and anti-p65 mAb (D) followed by trinitrobenzene substrate. Absorbance was read at 605 nm over a period of time between 0 and 300 s with a mixing time of 0.30 s and a 5-s interval between readings prior to stopping. The velocity of r-GILZ-p65 (F) and GILZ-P-p65 (G) reactions was measured as mean optical density/min. […]
High binding ELISA plates coated with 40 μM r-p65/r-GILZ were probed with cytoplasmic/nuclear extracts, respectively, of CD4+ peripheral blood mononuclear cells stimulated with purified protein derivative (10 units/ml) for 48 h in the presence of dexamethasone (100 μg/ml). Binding of the plate-bound r-p65 with cytoplasmic GILZ and the plate-bound GILZ with nuclear p65 was detected with anti-GILZ mAb or anti-p65 mAb, respectively, followed by trinitrobenzene substrate. For detecting direct interaction of r-GILZ (5-40 μM), captured wells were probed with r-p65 (0.325-40 μM) at 22° C. for 2 h and detected with peroxidase-conjugated anti-GILZ mAb followed by trinitrobenzene substrate. Alternatively plates coated with GILZ-P, control-P (3.9-250 μM), r-GILZ (0.2-1.8 μM) were probed with 40 μM r-p65:DDK/p65ΔC14 and detected with anti-DDK/anti-p65 mAb, respectively. […]
Background: An ELISA detects its analyte on a solid surface through an enzyme-linked reagent.

Amino acid sequences for entries named in this document (tags omitted).
UniProt Q04206, whole entry: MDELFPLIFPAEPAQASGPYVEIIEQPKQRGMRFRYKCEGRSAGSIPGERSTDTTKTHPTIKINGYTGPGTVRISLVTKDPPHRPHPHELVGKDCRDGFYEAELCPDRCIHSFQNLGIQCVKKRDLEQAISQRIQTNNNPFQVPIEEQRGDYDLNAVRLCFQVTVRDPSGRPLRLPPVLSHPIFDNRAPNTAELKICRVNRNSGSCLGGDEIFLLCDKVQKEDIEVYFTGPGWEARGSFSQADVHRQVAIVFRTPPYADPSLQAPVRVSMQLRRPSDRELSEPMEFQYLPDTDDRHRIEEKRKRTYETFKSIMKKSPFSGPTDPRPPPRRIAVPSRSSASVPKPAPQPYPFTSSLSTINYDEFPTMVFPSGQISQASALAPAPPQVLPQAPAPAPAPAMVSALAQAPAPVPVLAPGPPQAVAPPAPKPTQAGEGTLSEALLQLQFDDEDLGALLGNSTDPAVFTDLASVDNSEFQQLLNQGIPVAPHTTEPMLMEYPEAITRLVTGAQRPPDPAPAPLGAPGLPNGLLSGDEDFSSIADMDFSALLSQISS

B1: purified recombinant GILZ protein with C-terminal DDK (r-GILZ) (other)
chain: MNTEMYQTPMEVAVYQLHNFSISFFSSLLGGDVVSVKLDNSASGASVVAIDNKIEQAMDLVKNHLMYAVREEVEILKEQIRELVEKNSQLERENTLLKTLASPEQLEKFQSCLSPEEPAPESPQVPEAPGGSAV
notes: also called rh-GILZ; glucocorticoid induced leucine zipper; not shown: C-terminal DDK tag
A word on the Kd: it is a measure of binding affinity in units of concentration. As to B1, the Kd worked out at 0.591 µM.

The values are drawn from patent US20130338077A1 (INDIANA UNIVERSITY RESEARCH AND TECHNOLOGY, published 2013).
